Assay results from US20050075345A1, “Novel inhibitor compounds specific of secreted non-pancreatic human a2phospholipase of group II” (Yang Ji Chemical Company Ltd., priority 2001, published 2005).

Amino acid sequences for entries named in this document (tags omitted). Residues count along the entry.
UniProt P14555, 21-144 limits assumed: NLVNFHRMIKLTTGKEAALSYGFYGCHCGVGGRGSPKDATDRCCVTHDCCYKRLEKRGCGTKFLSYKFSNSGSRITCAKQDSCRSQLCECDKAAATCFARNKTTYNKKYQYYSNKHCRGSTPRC
UniProt P00592, 23-146 limits assumed: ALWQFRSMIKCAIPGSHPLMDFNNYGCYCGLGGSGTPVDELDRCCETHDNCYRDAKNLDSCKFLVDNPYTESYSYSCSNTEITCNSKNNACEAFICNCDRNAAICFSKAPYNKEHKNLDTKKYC

Experiments:
[1] = molecular target: human recombinant PLA2 (group II) (Homo sapiens, UniProt P14555); assay: Fluorometric anti-PLA2 assay, human recombinant PLA2 (group II); format: biochemical; conditions: read-out: Anti-PLA2 activity IC50 HPLA2; measured for fluorescence with human recombinant PLA2 (group II)
Description: (§1) Phospholipase A2 hydrolyzes an ester linkage at the sn-2 position of glycerophospholipid and liberates fatty acids and lysophospholipids. The in vitro action of particular compounds was evaluated by the analysis of fatty acids according to the fluorometric method described in Radvanyi et al., Anal. Biochem. 1989, 177. 103-109, and by the analysis of lysophospholipids according to the UV spectrophotometric method described in Reynolds et al., Anal. Biochem. 1992, 204, 190-197.
(§2) Enzymes used were two secretory enzymes of group II (human recombinant PLA2, and PLA2 basic subunit isolated from Crotalus durissus terrificus), and a secretory enzyme of porcine pancreatic (group I) PLA2.
(§3) Regarding substrates, palmitoyl-2-(10-pyrenyl decanoyl)-sn-glycero-3-phosphatidylglycerolic acid as a fluorescent substrate was used in the fluorometric method, and the lithium salt of 1,2-bis-(dihexanylthio)-dideoxy-rac-glycero-3-phosphorylglycerol was used in the UV spectrophotometric method.
(§4) The fluorometric analysis was performed using a Perkin Elmer LS50 luminescence spectrometer in a unit dosage polystyrene cell having a size of 1 cm. The exact concentration of the fluorescent substrate was determined by UV Unicam spectrometry in a quartz cell.
(§5) PLA2 is an enzyme that hydrolyzes an ester linkage at the sn-2 position of phospholipid. […] After hydrolysis with the enzyme, fluorescence emitted by the liberated fatty acid (pyrenyl decanoic acid) complex with bovine serum albumin (BSA) is increased, and strong fluorescence emission is observed at 378 and 398 nm. The principle of the analysis is to measure a difference in fluorescence at 398 nm in order to examine the production of fatty acids liberated for a given period of time, thus determining the PLA2 activity.
Measurement of the enzymatic activity was performed in a cell containing: 960 μl of Tris buffer; 50 mM HCl (pH 7.5); 0.5 M NaCl, 1 mM EGTA; and 1 μl substrate. […]
The enzymatic activity is shown by a curve of which the original slope permits to calculate the initial velocity of the reaction. […] In the equation, S0 represents the slope of a curve in the absence of calcium (control), S the slope in the presence of calcium, V the volume (μl) of the substrate solution, and Fmax the signal of maximum fluorescence obtained at the end of the enzymatic reaction: [formula]
(§6) The residual activity in the presence of an inhibitor was evaluated by slopes obtained in the absence and presence of an inhibitor, according to the following equation: Residual activity (%)=(S−S0) in the presence of inhibitor/(S−S0) in the absence of inhibitor […]

[2] = tested on: carrageenan-induced edema; assay: Carrageenan-induced edema test in rats; conditions: dose of 10 mg/kg
Description: An in vivo activity assay was performed by a carrageenan-induced edema test in rats.
In the experimental protocol conducted, indomethacin as the reference product, or the compound No. 5, was administered intraperitoneally or orally at one hour before the injection of carrageenan into the hind leg of the rats. The volume of edema was measured at 0, 3 and 5 hours after the injection of carrageenan. The doses used were 5, 10 and 20 mg/kg for the two products tested.

[3] = molecular target: porcine pancreatic PLA2 (group I) (Sus scrofa, UniProt P00592); assay: Fluorometric anti-PLA2 assay, porcine pancreatic PLA2 (group I); format: biochemical; conditions: read-out: Anti-PLA2 activity IC50 PPLA2; measured for fluorescence with porcine pancreatic PLA2 (group I)
Description: as §1, §2, §3, §4, §5
Measurement of the enzymatic activity was performed in a cell containing: 960 μl of Tris buffer; 50 mM HCl (pH 7.5); 0.5 M NaCl, 1 mM EGTA; and 1 μl substrate. This mixture was stirred under reflux for one minute to permit the formation of vesicles of substrate, and then, 10 μl of 10% SAB, 10 μl of solvent (ethanol or DMSO) or inhibitor solution, 10 μl of PLA2 to a given concentration and finally 10 μl of 1 M calcium chloride (CaCl2) for initiating the activity were successively added to the mixture under stirring.
Good conditions of measurement of the enzymatic activity include saturation of the enzyme, and thus, initial concentrations used are as follows: (i) human recombinant PLA2: 0.1 μl/ml; (ii) porcine pancreatic PLA2: 0.6 μl/ml; and (iii) Crotalus durissus terrificus (CB) PLA2: 0.05 μl/ml. Mother solution containing the inhibitor was prepared at an initial concentration of 10^−2 M.
The enzymatic activity is shown by a curve of which the original slope permits to calculate the initial velocity of the reaction. The following equation permits to calculate the enzymatic activity (A; μmol) of fatty acids liberated per minute. In the equation, S0 represents the slope of a curve in the absence of calcium (control), S the slope in the presence of calcium, V the volume (μl) of the substrate solution, and Fmax the signal of maximum fluorescence obtained at the end of the enzymatic reaction: [formula]
as §6

| SMILES | IC50 [1] [µM] | IC50 [3] [µM] | inhibition of edema ([2]; intraperitoneal route, given one hour before carrageenan) [%] | inhibition of edema ([2]; oral route, at 5 hours after the injection of carrageenan) [%] |
| --- | --- | --- | --- | --- |
| CCCCCCCCCCCCCCN1CCN(C(=O)c2ccc(Cc3noc(=O)[nH]3)cc2)CC1 [Example 8, 1-[4′-(4,5-dihydro-1,2,4(4H)-5-oxo-oxadiazol-3-ylmethyl)benzoyl]-4-tetradecylpiperazine] | 9 |  | 73 | 65 |
| CCCCCCCCCCCCCCCCCCCCN1CCN(C(=O)c2ccc(Cc3noc(=O)[nH]3)cc2)CC1 |  | > 100 |  |  |
| CCCCCCCCCCCCCCCCCCCCCCN1CCN(C(=O)c2ccc(Cc3noc(=O)[nH]3)cc2)CC1 |  | > 100 |  |  |
| CCCCCCCCCC(CCCCCCCCC)N1CCN(C(=O)c2ccc(Cc3noc(=O)[nH]3)cc2)CC1 | 0.3 | > 100 |  |  |

More lines, main results first:

| IC50 [1] [µM] | IC50 [3] [µM] | SMILES | inhibition of edema ([2]; intraperitoneal route, given one hour before carrageenan) [%] | inhibition of edema ([2]; oral route, at 5 hours after the injection of carrageenan) [%] |
| --- | --- | --- | --- | --- |
|  | > 100 | CCCCCCCCCCCCCCCCCCN1CCN(Cc2ccc(Cc3noc(=O)[nH]3)cc2)CC1 |  |  |
| 10 | > 100 | CCCCCCCCCCCCCCCCN1CCN(Cc2ccc(Cc3noc(=O)[nH]3)cc2)CC1 |  |  |
| > 100 |  | CCCCCCCCCCCCN1CCN(Cc2ccc(Cc3noc(=O)[nH]3)cc2)CC1 |  |  |
